Experimental data as given in PubChem BioAssay AID504660 (National Center for Advancing Translational Sciences (NCATS), 2011).
Several values for one entry are separate records, joined by “and”; a condition that tells them apart may be missing. Equal entries are not always repeated. The list shows a part of the results, in another mix than the full data. Activity calls are given as the source filed them. No stated cut-off is given here; in the data, active means activation above about 30%; inactive means the rest.

By UniProt entry, the sequences of proteins in these tests, tags left out.
UniProt P21728, whole entry, looked up: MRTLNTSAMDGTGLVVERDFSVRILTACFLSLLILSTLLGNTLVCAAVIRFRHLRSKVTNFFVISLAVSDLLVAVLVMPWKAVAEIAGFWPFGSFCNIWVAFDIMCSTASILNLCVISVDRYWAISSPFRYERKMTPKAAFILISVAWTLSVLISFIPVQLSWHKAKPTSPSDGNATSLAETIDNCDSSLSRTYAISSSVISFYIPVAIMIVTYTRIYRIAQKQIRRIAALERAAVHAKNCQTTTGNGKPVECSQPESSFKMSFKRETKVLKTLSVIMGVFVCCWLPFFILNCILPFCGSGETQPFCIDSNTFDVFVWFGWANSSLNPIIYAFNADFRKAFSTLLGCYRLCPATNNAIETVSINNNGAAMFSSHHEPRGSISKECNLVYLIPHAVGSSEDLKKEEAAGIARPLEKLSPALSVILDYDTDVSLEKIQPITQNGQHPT

What follows are compounds tested against D(1A) dopamine receptor (Homo sapiens) (UniProt P21728) (assay: Allosteric Agonists of the Human D1 Dopamine Receptor: qHTS). Conditions: HEK293 T-REx D1 cells, calcium flux, agonist mode; at 2 µM; hits give high values.
From the text: NIH Chemical Genomics Center [NCGC] NIH Molecular Libraries Probe Centers Network [MLPCN] MLPCN Grant: NS064831-01 Assay Submitter (PI): David Sibley Dopamine receptors (DARs) are involved in the etiology and/or therapy of a number of neuropsychiatric and endocrine disorders. For instance, all receptor-based antiparkinsonian drugs work via stimulating the D1 DAR subtype whereas all FDA-approved antipsychotic agents are antagonists of this receptor. […] There are three different types of allosteric modulators that we are seeking, two of which will stimulate or augment receptor signaling, allosteric agonists and potentiators, while the third, allosteric antagonists, will attenuate receptor signaling. The present primary screening assay measures compound agonism by tracking calcium flux in a […], inducible Hek293 Trex D1 cell line.
Freshly passaged cells are plated in 1536 well black, clear bottom plates at a density of 4000 cells/well in 3 ul of complete media containing 1x tetracycline inducer. After an overnight incubation at […] in 5% CO2, cells are loaded with 2 ul of the no wash Calcium Assay Kit (ABD Bioquest) and incubated at room temperature for 30 to 90 minutes. Agonist read: A 10 cycle (1 second/cycle) baseline measurement is taken and then the FDSS online 1536 pintool delivers 23 nl of compound library (as well as dopamine controls) to the plate. The plate is measured for kinetically at 1 cycle/sec for 180 seconds and is considered to be the agonist portion of the assay (eg, compounds which activate a positive calcium response during this portion are flagged as potential agonists). Following the 180 second read, 1 ul of either an EC20 (positive modulation assay) or EC80 (negative modulation assay) is delivered by an onboard pipette head. Measurements are taken kinetically for an additional 180 seconds.
Further: 0% is about no effect.

Row | Structure (SMILES) | activation
1 | Nc1cc(N)c2nonc2c1[N+](=O)[O-] | inactive: 2.03%
2 | Cc1c2non([O-])c-2c(C)[n+](=O)[n+]1[O-] | inactive: -1.26%
3 | O=C(NC(Sc1ccncn1)C(Cl)(Cl)Cl)c1ccccc1 (stereo unspecified) | inactive: 2.19%
4 | Oc1ccccc1CNc1ccccn1 | inactive: 1.16%
5 | Cc1ccc(OP(=O)(Nc2nccs2)Oc2ccc(C)cc2)cc1 | inactive: 1.3%
6 | COc1ccccc1OP(=O)(Nc1ccc(C)cn1)Oc1ccccc1OC | inactive: -0.659%
7 | Clc1ccc(Cl)c(NC2=NCC(CBr)S2)c1 (stereo unspecified) | inactive: 2.89%
8 | CN1CCCC(OC(=O)C(c2ccccc2)c2ccccc2)C1 (stereo unspecified) | inactive: 5.72%
9 | NC(=O)c1cc([N+](=O)[O-])cc([N+](=O)[O-])c1N | inactive: 4.2%
10 | Cc1ccc(N/C(=N/P(=O)(N2CCOCC2)N2CCOCC2)N2CCOCC2)cc1 | inactive: 4.87%
11 | CN(C(=O)Cc1ccc(Cl)c(Cl)c1)[C@H]1CCCC[C@H]1N1CCCC1 | inactive: 2.69%
12 | CCN(N=Nc1nonc1N)c1nonc1N | inactive: 2.91%
13 | Nc1cccc2ccc([As](=O)(O)O)cc12 | inactive: 1.11%
14 | O=[N+]([O-])c1cc([N+](=O)[O-])c(CCN2CCOCC2)c([N+](=O)[O-])c1 | inactive: 2.48%
15 | Cc1ccc(NP(=O)(Oc2ccccc2F)Oc2ccccc2F)nc1 | inactive: 2.97%
16 | CCOP(=O)(Nc1ccccc1)OCC | inactive: 3.38% and inactive: 1.4%
17 | Cc1cc(SC(NC(=O)c2ccc(F)cc2)C(Cl)(Cl)Cl)ncn1 (stereo unspecified) | inactive: 1.86%
18 | O=C(O)c1ccccc1[As](=O)(O)O | inactive: 1.64%
19 | CC(=O)Nc1ccc([As](=O)(O)O)cc1 | inactive: 4.09%
20 | O=P(Nc1nc2ccc(Cl)cc2s1)(c1ccccc1)c1ccccc1 | inactive: 6.06%
21 | O=[N+]([O-])c1cccc(NC2=NCC(CBr)S2)c1 (stereo unspecified) | inactive: 6%
22 | O=C(O)CNc1ccc([As](=O)(O)O)cc1 | inactive: 3.53%
23 | CC(C)(C)C(=O)NC(Sc1ccncn1)C(Cl)(Cl)Cl (stereo unspecified) | inactive: 1.87%
24 | O=[N+]([O-])c1ncn(CCn2ncnc2[N+](=O)[O-])n1 | inactive: 2.85%
25 | O=C(Nc1cc([As](=O)(O)O)ccc1O)c1ccccc1 | inactive: 4.26%
26 | CN(C)C(=O)OCCc1n(C)cc[n+]1C | inactive: -1.36%

Row | Structure (SMILES) | activation
27 | CC(C)=N/N=C(\N)N[N+](=O)[O-] | inactive: 3.1%
28 | CC1CCN(C(=O)Oc2c(Cl)cc(Cl)c3cccnc23)CC1 | inactive: 8.37%
29 | C[N+]1=C2C=CC=CC=C2SC12C([N+](=O)[O-])=CC([N+](=O)[O-])=C[C-]2[N+](=O)[O-] (stereo unspecified) | inactive: 9.81%
30 | Nc1ccc([As](=O)(O)c2ccc(N)cc2)cc1 | inactive: 0.339%
31 | CCN(/C(=N/P(=O)(N1CCOCC1)N1CCOCC1)N1CCOCC1)c1ccc(OC)cc1 | inactive: -0.301%
32 | CC(=O)N1C2C3N(C(C)=O)C1C1N(C(C)=O)C(C(N1C(C)=O)N3C(C)=O)N2C(C)=O | inactive: 1.03%
33 | O=[N+]([O-])c1cccc2n[nH]nc12 | inactive: 2.49%
34 | O=[N+]([O-])c1cc([N+](=O)[O-])c(CCNc2ccccc2)c([N+](=O)[O-])c1 | inactive: 1.47%
35 | CCc1nc2c(n1)c1c(non1O)c1c2no[n+]1[O-] | inactive: 1.15%
36 | Cc1ccc(NP(=O)(Oc2ccccc2)Oc2ccccc2)nc1 | inactive: 0.19%
37 | COc1ccc(C2=NCC(CBr)S2)cc1 (stereo unspecified) | inactive: 1.22%
38 | c1nnnn1CCn1cnnn1 | inactive: 2.04%
39 | O=P(Nc1nccs1)(c1ccccc1)c1ccccc1 | inactive: 0.977%
40 | CC(C)C(=O)NC(Sc1ccccc1)C(Cl)(Cl)Cl (stereo unspecified) | inactive: -0.224%
41 | Nc1ccc([As](=O)(O)c2ccc([N+](=O)[O-])cc2)cc1 | inactive: 0.909%
42 | C(Cc1nn[nH]n1)Cc1nn[nH]n1 | inactive: 0.2%
43 | O=C(OC1CN2CCC1CC2)c1cccc(Cl)c1 (stereo unspecified) | inactive: 5.3%
44 | O=[N+]([O-])c1ncn(CCn2cnc([N+](=O)[O-])n2)n1 | inactive: 1.52%
45 | CC(=O)NC(SC(=S)N(C)C)C(Cl)(Cl)Cl (stereo unspecified) | inactive: 5.6%
46 | O=[N+]([O-])c1ccc(O)c(/C=N/Nc2ccc([N+](=O)[O-])cc2[N+](=O)[O-])c1 | inactive: 23.5%
47 | O=[As](O)(c1ccccc1)c1ccc(O)cc1 | inactive: 3.24%
48 | C[C@H]1OP(=O)(Oc2ccccc2)[C@H](O)[C@H](O)[C@H]1N=[N+]=[N-] (stereo partly specified) | inactive: 3.87%
49 | O=P(Nc1nc2ccccc2s1)(c1ccccc1)c1ccccc1 | inactive: 1.13%
50 | CN(C)C1(CNC(=O)c2ccc(Cl)c(S(N)(=O)=O)c2)CCCCC1 | inactive: 1.07%
51 | O=P(Nc1ccccn1)(c1ccc(Br)cc1)c1ccc(Br)cc1 | inactive: 2.39%
52 | CN(C)C(=O)Oc1noc2ccccc12 | inactive: 3.06%

Row | Structure (SMILES) | activation
53 | O=c1c2cc([N+](=O)[O-])ccc2[nH]c2c([N+](=O)[O-])cc([N+](=O)[O-])cc12 | active: 37.5%
54 | Cc1ccccc1OP(=O)(Nc1ccccn1)Oc1ccccc1C | inactive: 1.56%
55 | Cc1ccc(OP(=O)(Nc2ccccn2)Oc2ccc(C)cc2)cc1 | inactive: 1.23%
56 | CC(=O)NC(SC(=S)N(CC(C)C)CC(C)C)C(Cl)(Cl)Cl (stereo unspecified) | inactive: 1.77%
57 | COC(=O)c1cc2c(s1)N=C(c1ccccc1)N(C)P2(=O)N1CCOCC1 (stereo unspecified) | inactive: 1.71%
58 | CCC(=O)N1C2C3N(C(=O)CC)C1C1N(C(=O)CC)C(C(N1C(=O)CC)N3C(=O)CC)N2C(=O)CC | inactive: 2.24%
59 | O=C(OC1CN2CCC1CC2)c1ccccc1 (stereo unspecified) | inactive: 3.4%
60 | O=C(NC1CCS(=O)(=O)C1)NP(=S)(Oc1ccccc1)Oc1ccccc1 (stereo unspecified) | inactive: 5.08%
61 | CCNC(=S)/N=C(\N)N[N+](=O)[O-] | inactive: 2.66%
62 | CCOC(=O)NC(Sc1ccccc1)C(Cl)(Cl)Cl (stereo unspecified) | inactive: 2.49%
63 | Cc1ccc(NP(=O)(Oc2cccc(C)c2)Oc2cccc(C)c2)nc1 | inactive: 1.35%
64 | c1ccc(-c2nn[nH]n2)c(-c2nn[nH]n2)c1 | inactive: 4.41%
65 | CC(=O)Nc1ccc(Oc2c([N+](=O)[O-])cc([N+](=O)[O-])cc2[N+](=O)[O-])cc1 | inactive: 0.487%
66 | CC(=O)Nc1ccc([As](=O)(O)O)c(O)c1 | inactive: 1.84%
67 | CC(=O)c1ccc(N2CC2c2ccncc2)cc1 (stereo unspecified) | inactive: 4.96%
68 | C[C@@H]1C=CCP(=O)(Oc2ccccc2)O1 (stereo partly specified) | inactive: 3.3%
69 | C[C@H]1OP(=O)(Oc2ccccc2)C[C@@H]2O[C@@H]21 (stereo partly specified) | inactive: 3.27%
70 | Cc1ccccc1CN(C)C(=O)COC(=O)C(O)(c1ccccc1)c1ccccc1 | inactive: 3.83%
71 | CC(C)(C)C(=O)NC(Sc1ccccc1)C(Cl)(Cl)Cl (stereo unspecified) | inactive: 0.224%
72 | CCOc1ccc(C2=NCC(CBr)S2)cc1 (stereo unspecified) | inactive: 0.0712%
73 | O=P1(Nc2nc3ccc(Cl)cc3s2)COc2ccccc2O1 (stereo unspecified) | inactive: 0.475%
74 | CCOP(=O)(Nc1cccc2ccccc12)OCC | inactive: 6.76%
75 | COc1cc(C2NCCC3(OCCO3)C2(C)C)cc(OC)c1OC (stereo unspecified) | inactive: 2.38%
76 | CCCOP(=S)(Nc1nc(N)cc(=O)[nH]1)OCCC | inactive: 1.81%
77 | Nc1cccc2c([As](=O)(O)O)cccc12 | active: 31.8%
78 | Cc1ccc(NCCc2c([N+](=O)[O-])cc([N+](=O)[O-])cc2[N+](=O)[O-])cc1 | inactive: 4.76%

Row | Structure (SMILES) | activation
79 | O=[As](O)(c1cccc(O)c1)c1cccc(O)c1 | inactive: 1.38%
80 | Cc1cccc(OCC(=O)OC2CN3CCC2CC3)c1 (stereo unspecified) | inactive: 0.0229%
81 | CS(=O)(=O)c1ccc(Cl)c(NC(=O)COC(=O)C(O)(c2ccccc2)c2ccccc2)c1 | inactive: 9%
82 | COc1cc(C(=O)NCC2(N3CCOCC3)CCCCC2)cc(Cl)c1OC(C)C | inactive: 0.681%
83 | O=[As](O)(O)c1cccnc1 | inactive: 2.02%
84 | O=C(OC1CN2CCC1CC2)c1ccc(Cl)cc1 (stereo unspecified) | inactive: 6.15%
85 | O=[N+]([O-])c1ccc2c(c1)nnn2O | inactive: 0.776%
86 | CCOP1(=S)c2c(C)nn(CCC#N)c2N=C(c2ccc(F)cc2)N1C (stereo unspecified) | inactive: 0.676%
87 | CN(C(=O)Cc1ccccc1)[C@@H]1CC[C@]2(CCCO2)C[C@H]1N1CCCC1 | inactive: 0.447%
88 | N#CCCN(C(=O)COC(=O)C(O)(c1ccccc1)c1ccccc1)c1ccc(F)cc1 | inactive: 7.64%
89 | NC(=O)Nc1ccc([As](=O)(O)O)cc1 | inactive: 3.63%
90 | O=C(O)COc1ccc([As](=O)(O)O)cc1[N+](=O)[O-] | inactive: 0.918%
91 | Nc1ccccc1[As](=O)(O)c1ccccc1 | inactive: 2.53%
92 | CS(=O)(=O)c1cc([N+](=O)[O-])c2no[n+]([O-])c2c1 | inactive: 12.8%
93 | O=P(Nc1nccs1)(c1ccccc1)c1nc2ccccc2s1 (stereo unspecified) | inactive: 1.36%
94 | O=P(Nc1nccs1)(Oc1ccccc1)Oc1ccccc1 | inactive: 1.03%
95 | CCOP1(=S)c2c(C)nn(CCC#N)c2N=C(c2ccccc2F)N1C (stereo unspecified) | inactive: -0.308%
96 | NS(=O)(=O)c1cccc(NC(=O)COC(=O)C(O)(c2ccccc2)c2ccccc2)c1 | inactive: 3.61%
97 | O=P1(Nc2ccc(Br)cn2)COc2ccccc2OC1 | inactive: 3.7%
98 | O=[As](O)(c1cccs1)c1cccs1 | inactive: 7.03%
99 | Cc1ccc(OCC(=O)OC2CN3CCC2CC3)cc1 (stereo unspecified) | inactive: 4.06%
100 | Nc1cccc([As](=O)(O)c2ccccc2)c1 | inactive: 6.71%
101 | O=P1(Nc2ncccn2)COc2ccccc2OC1 | inactive: 2.26%
